Target: T1, hIK (Homo sapiens, UniProt O15554)
T1 construct: expressed in transfected cells; host or cells: HEK293 (transient, co-transfected with eGFP)
Experiment: Manual whole cell patch clamp, HEK293 transiently transfected with hIK
Format: cell-based
Conditions: TRAM-34 1 μM

Clc1ccccc1C(c1ccccc1)(c1ccccc1)n1cccn1 [TRAM-34, 1-[(2-chlorophenyl)diphenylmethyl]-1H-pyrazole, reference compound]
Effect on IK current (reference blocker): completely inhibited

— paper PMC6287599, “2,6-Bis(2-Benzimidazolyl)Pyridine (BBP) Is a Potent and Selective Inhibitor of Small Conductance Calcium-Activated Potassium (SK) Channels” (Frontiers in Pharmacology, 2018)
